Reference: ChEMBL document CHEMBL4371059 (J Med Chem, 2019)

Amino acid sequences for entries named in this document (tags omitted).
UniProt Q60492, whole entry: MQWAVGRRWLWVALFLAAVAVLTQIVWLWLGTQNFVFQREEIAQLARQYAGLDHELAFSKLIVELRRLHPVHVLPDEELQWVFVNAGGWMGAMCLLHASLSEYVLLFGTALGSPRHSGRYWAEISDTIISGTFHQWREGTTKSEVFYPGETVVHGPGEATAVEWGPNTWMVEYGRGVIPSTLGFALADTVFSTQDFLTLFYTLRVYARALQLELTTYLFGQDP
UniProt P33533, whole entry: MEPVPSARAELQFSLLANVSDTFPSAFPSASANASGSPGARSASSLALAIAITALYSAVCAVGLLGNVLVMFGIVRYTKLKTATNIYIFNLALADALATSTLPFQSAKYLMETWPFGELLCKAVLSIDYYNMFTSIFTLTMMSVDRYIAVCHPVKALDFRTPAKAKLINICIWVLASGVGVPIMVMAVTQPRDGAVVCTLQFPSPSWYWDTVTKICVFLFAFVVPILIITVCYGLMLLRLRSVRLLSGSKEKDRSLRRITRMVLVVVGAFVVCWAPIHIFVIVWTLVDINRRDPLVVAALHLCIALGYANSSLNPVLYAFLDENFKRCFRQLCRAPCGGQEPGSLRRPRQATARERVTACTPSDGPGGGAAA
UniProt P41145, whole entry: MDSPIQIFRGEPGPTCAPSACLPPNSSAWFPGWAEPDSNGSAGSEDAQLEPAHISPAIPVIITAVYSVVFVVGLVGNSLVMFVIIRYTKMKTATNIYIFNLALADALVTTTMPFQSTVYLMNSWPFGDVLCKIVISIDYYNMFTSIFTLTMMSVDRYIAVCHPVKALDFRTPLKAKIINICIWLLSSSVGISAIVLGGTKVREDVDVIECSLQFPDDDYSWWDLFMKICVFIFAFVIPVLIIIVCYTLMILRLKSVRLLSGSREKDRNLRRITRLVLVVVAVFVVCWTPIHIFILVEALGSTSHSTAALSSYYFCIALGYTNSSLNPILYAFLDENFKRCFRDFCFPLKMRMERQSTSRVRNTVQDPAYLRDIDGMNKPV

Experiments:
[1] = target: Sigma non-opioid intracellular receptor 1 (Cavia porcellus) (UniProt Q60492); assay: Displacement of [3H]-(+)-pentazocine from sigma1 receptor in guinea pig brain membranes at 1 uM after 120 mins by scintillation counting method relative to control
[2] = target: Delta-type opioid receptor (Rattus norvegicus) (UniProt P33533); assay: Displacement of [3H]DPDPE from DOR in Sprague-Dawley rat brain membranes at 1 uM after 120 mins by scintillation counting method relative to control
Cavia porcellus = organism: Cavia porcellus; assay: Selectivity ratio of Ki for MOR in guinea pig brain membranes to Ki for KOR in guinea pig brain membranes
[3] = target: Kappa-type opioid receptor (Homo sapiens) (UniProt P41145); assay: Agonist activity at Tango-KOR (unknown origin) expressed in HTLA cells harboring TEV-fused-beta-arrestin 2 assessed as increase in beta arrestin 2 recruitment after overnight incubation by BrightGlo reagent based assay relative to salvinorin A
[4] = target: Kappa-type opioid receptor (Homo sapiens) (UniProt P41145); assay: Agonist activity at human KOR expressed in HEK293T cells assessed as inhibition of Galphai-mediated cAMP accumulation after 15 mins by microbeta counting assay relative to salvinorin A

Row | SMILES | inhibition [1] | inhibition [2] | Ratio Ki (Cavia porcellus) | Emax [3] | Emax [4]
1 | COC(=O)N1CCN(C(=O)Cc2ccc(Cl)c(Cl)c2)[C@@H]2[C@@H](N3CCCC3)CCC[C@@H]21 | 0% | > 50% |  |  | 
2 | O=C(Cc1ccc(Cl)c(Cl)c1)N1CCN(CCF)[C@H]2CCC[C@H](N3CCCC3)[C@H]21 |  | 5% | > 4500 |  | 
3 | O=C(Cc1ccc(Cl)c(Cl)c1)N1CCN(C(=O)COCCF)[C@H]2CCC[C@H](N3CCCC3)[C@H]21 | 13% | > 50% |  | 103% | 97%
4 | O=C(Cc1ccc(Cl)c(Cl)c1)N1CCN(CCCCF)[C@H]2CCC[C@H](N3CCCC3)[C@H]21 | 0% | 17% |  |  | 
5 | O=C(Cc1ccc(Cl)c(Cl)c1)N1CCN(Cc2ccc(F)cc2)[C@H]2CCC[C@H](N3CCCC3)[C@H]21 | > 50% | > 50% |  | 105% | 97%
